Measured values taken from patent US12415819B2, “Cu- and Ni-catalyzed decarboxylative borylation reactions” (The Scripps Research Institute, priority 2017, dated 2025).

Sequences of proteins named here, by UniProt entry; tags and fusion partners are left off. Residues count along the entry.
UniProt P08246, 30-267: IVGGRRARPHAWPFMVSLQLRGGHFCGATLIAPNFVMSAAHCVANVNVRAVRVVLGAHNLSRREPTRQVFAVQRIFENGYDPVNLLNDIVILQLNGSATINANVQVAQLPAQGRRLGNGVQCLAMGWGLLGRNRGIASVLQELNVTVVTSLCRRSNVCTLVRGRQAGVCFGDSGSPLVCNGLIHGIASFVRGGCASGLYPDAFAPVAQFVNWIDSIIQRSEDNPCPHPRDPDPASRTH

Legend:
[1] = target: elastase in CF patient sputum (Homo sapiens (Human), UniProt P08246); test: Elastase inhibition assay in CF patient sputum; assay type: biochemical
[2] = target: elastase in COPD patient sputum (Homo sapiens (Human), UniProt P08246); test: Elastase inhibition assay in COPD patient sputum; assay type: biochemical
HNE = HNE (Homo sapiens (Human), UniProt P08246); settings: literature value; read-out: reported Ki; cited from earlier work

IC50 [1]: 400 ± 40 pM | IC50 [2]: 24 ± 3 pM
Structure (SMILES): CC1=C(C#N)[C@@H](c2ccc(C#N)cc2S(C)(=O)=O)N(C)C(=O)N1c1cccc(C(F)(F)F)c1 [Compound 54, BAY 85-8501]
Ki (HNE): 80 pM
